These results are taken from ChEMBL document CHEMBL3861941, “Discovery of 4,6-disubstituted pyrimidines as potent inhibitors of the heat shock factor 1 (HSF1) stress pathway and CDK9” (Medchemcomm, 2016).

A short description of the assay: Cytotoxicity against human U2OS cells assessed as growth inhibition after 96 hrs by SRB assay. The assay is classed as functional, cell-based. For orientation: In SRB staining, fixed cells bind dye roughly in proportion to their protein.

What is called IC50 is the concentration that inhibits the measured activity by half. On to `CCc1cnn2c(NCc3ccc[n+]([O-])c3)cc(N3CCCC[C@H]3CCO)nc12` [DINACICLIB], for which the IC50 came to 6 nM.
